What all share (format): cell-based
Assay [1] relates to BT474 cells. Kind of assay: Growth of BT474 cells in HERCEPTIN
To be noted: HERCEPTIN 0-3 ug/ml; cell counts three days post-treatment. Here is the method: (§1) Cells were plated in 96 well plates at 10,000 cells/well, six wells/condition. […] Three days later, the remaining cells were counted using a hemocytometer.
(§2) Percent Normalized Growth was then calculated: Percent Normalized Growth=[(Day 3 cell counts with Antibody Added )−(Zero-day cell counts)]/[(Day 3 Cell counts without antibody added)−(Zero-day cell counts)]×100%

For assay [2], the system named is BTRes1 cells. Kind of assay: Growth of BTRes1 cells in HERCEPTIN
To be noted: HERCEPTIN 0-3 ug/ml; cell counts three days post-treatment. The protocol:
as §1, §2

The subject of assay [3] is BTRes2 cells. Kind of assay: Growth of BTRes2 cells in HERCEPTIN
The settings on record: HERCEPTIN 0-3 ug/ml; cell counts three days post-treatment. Here is the method:
as §1, §2

Assay [4] relates to MUC1*. Kind of assay: Western blot of MUC1* in cells made HERCEPTIN resistant. The settings on record: BTRes1 and BTRes2 vs BT474; cultured in 1 ug/ml HERCEPTIN for 3 months.
In assay [5] the test system is full-length MUC1. Kind of assay: Western blot of full-length MUC1 in cells made HERCEPTIN resistant. To be noted: breast tumor cells that acquired resistance to HERCEPTIN
A general note: A western blot detects proteins with antibodies after separation by electrophoresis.

In the case of “HERCEPTIN: humanized monoclonal antibody that acts on the HER2/neu (erbB2) receptor”, the cell growth entry in assay [1] is listed as “dose-dependent inhibition of cell growth”; in assay [2] it was “unaffected”; in assay [3], “unaffected”. In addition, in assay [4], the “increase in the expression of MUC1*” value was 4-6 ×. Moreover, in assay [5], the “amount of full-length MUC1” value is given as “no changes”.

(Values after patent US20090148535A1, “METHOD FOR TREATING CANCER USING INTERFERENCE RNA” (MINERVA BIOTECHNOLOGIES CORPORATION, priority 2007, published 2009).)
